Consider 1 substance from patent US6897209B2, “Labelled factor XIIIa substrates” (GE Healthcare Limited, priority 1997, dated 2005).

One assay concerns the target T1, human plasma clots (Homo sapiens, UniProt P00488).
T1 construct: Factor XIII is transformed into its active form Factor XIIIa by thrombin in the presence of calcium ions; from tissue; host or cells: human plasma, clotted in vitro with thrombin and calcium chloride
T1 sequence (P00488 39-732): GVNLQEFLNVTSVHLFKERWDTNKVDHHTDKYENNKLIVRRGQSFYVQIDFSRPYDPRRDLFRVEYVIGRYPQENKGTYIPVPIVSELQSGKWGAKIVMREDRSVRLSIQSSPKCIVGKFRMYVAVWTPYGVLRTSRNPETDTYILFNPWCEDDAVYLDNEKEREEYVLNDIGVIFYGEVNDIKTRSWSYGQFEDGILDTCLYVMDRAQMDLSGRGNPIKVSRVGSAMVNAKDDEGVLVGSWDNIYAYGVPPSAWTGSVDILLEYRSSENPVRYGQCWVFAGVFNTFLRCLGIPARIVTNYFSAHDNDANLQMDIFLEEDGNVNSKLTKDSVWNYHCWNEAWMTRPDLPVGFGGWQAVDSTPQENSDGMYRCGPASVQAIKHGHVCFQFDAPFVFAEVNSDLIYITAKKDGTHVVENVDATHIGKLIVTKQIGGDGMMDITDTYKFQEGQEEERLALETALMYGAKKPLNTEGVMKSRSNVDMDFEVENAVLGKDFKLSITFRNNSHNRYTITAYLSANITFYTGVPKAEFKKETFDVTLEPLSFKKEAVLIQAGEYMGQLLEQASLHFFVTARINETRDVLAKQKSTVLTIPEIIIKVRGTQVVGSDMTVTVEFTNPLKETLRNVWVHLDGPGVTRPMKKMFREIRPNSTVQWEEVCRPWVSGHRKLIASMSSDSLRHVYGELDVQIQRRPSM
Briefly: Incorporation into human plasma clots (in vitro plasma clot assay). It is filed as biochemical. Here is the method: Incorporation of radiolabelled substrates into fibrin was investigated by induction of an in vitro human plasma clot in the following manner. To a siliconised 5 ml glass vial was added, (a) 800 μl of Tris(hydroxymethyl)aminomethane buffered saline pH 7.5 containing calcium chloride (50 mM Tris, 150 mM sodium chloride, 4 mM calcium chloride.), (b) 40 μl of physiological salt solution containing 100 units of thrombin per ml, (c) 400 μl of human plasma containing the radiolabelled substrate at a concentration of typically 10 kBq/ml. To aid induction of clot a roughened glass rod was added to the reaction vial. Control vials were prepared similarly but with the omission of thrombin and calcium chloride.
The proportion of total radioactivity was calculated by counting in suitable detection apparatus.
The fraction of radioactivity retained on the filter, after subtraction of the non-specific binding determined from the control, is a measure of incorporation into the filtered clots.

A further assay concerns the target T2, Factor XIIIa (Homo sapiens, UniProt P00488).
T2 construct: Factor XIII is transformed into its active form Factor XIIIa by thrombin in the presence of calcium ions; from tissue; host or cells: human plasma
T2 sequence (P00488 39-732 limits assumed): T1 sequence (P00488 39-732)
Briefly: Factor XIIIa dependency of incorporation (dimethylcasein uptake, normal vs Factor XIII deficient plasma). Particulars: 1 KBq/ml, 60 minutes; uptake in normal plasma minus Factor XIII deficient plasma. It is filed as biochemical. Here is the method:
The assay was changed by replacing the mercaptoethanol with aprotinin at a final concentration of 2 μg/ml, and dimethylcasein (DMC) was used instead of casein.

“1-(4-(N-(5-aminopentyl)-amidosulphonyl)benzyl)-1,4,8,11-tetraazacyclotetradecane [Compound 20]”: on human plasma clots (% retained with thrombin − % retained no thrombin), the “% specific uptake*” value was determined as 3.4%. In addition, the “% retained in plasma clot assay (with thrombin)” value on human plasma clots (human plasma with thrombin and calcium chloride, 60 minutes, ca. 20° C.) is 4%. Also, on Factor XIIIa, the “% specific DMC casein uptake” value is reported as 8%.
